Values quoted from earlier work as cited in patent US20240050466A1, “CELLULAR HEALTH NUTRITIONAL PRODUCT” (GLAXOSMITHKLINE CONSUMER HEALTHCARE HOLDINGS (US) LLC, priority 2020, published 2024).

Conditions: cited from earlier work

Which “safe upper limit for adults” value does the source give for Vitamin E here?
Its value is 300 mg/day.
